This assay has as its target DPP-IV (Homo sapiens, UniProt P27487). Put plainly: Assay for determining DP-IV inhibition (fluorometric, Gly-Pro-AMC substrate). The conditions noted are these: read-out: Activity (K(i)), Inhibition of DPP-IV, K(i) calculated from IC(50) with IC(50)=K(i)(1+[S]/Km), pH 8.0.

Amino acid sequences for entries named in this document (tags omitted).
UniProt P27487, whole entry: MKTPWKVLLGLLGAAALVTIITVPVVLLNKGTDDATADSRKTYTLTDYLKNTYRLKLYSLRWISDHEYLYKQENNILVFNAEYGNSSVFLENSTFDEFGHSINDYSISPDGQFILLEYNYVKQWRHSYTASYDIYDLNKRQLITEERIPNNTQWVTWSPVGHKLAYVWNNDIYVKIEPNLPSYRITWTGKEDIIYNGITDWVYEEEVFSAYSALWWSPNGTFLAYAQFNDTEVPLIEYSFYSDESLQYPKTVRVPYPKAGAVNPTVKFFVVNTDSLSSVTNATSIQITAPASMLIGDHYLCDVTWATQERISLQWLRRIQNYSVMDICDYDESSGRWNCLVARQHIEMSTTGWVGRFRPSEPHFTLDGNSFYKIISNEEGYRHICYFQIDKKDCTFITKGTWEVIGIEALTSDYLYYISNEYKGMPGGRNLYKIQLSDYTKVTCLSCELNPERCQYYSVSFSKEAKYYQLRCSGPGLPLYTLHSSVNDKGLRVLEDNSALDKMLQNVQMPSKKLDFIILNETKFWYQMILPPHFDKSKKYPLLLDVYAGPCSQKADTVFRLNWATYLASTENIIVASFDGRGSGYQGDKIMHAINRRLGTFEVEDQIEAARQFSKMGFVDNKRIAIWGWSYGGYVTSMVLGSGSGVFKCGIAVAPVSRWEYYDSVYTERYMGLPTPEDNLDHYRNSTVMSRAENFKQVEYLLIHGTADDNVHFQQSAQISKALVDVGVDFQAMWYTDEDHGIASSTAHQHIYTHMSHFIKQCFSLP

Take `C[C@@H](CC1(c2noc(=O)[nH]2)c2ccc(C(=O)N(C)C)cc2CCc2cc(C(=O)N(C)C)ccc21)NCC(=O)N1CCC[C@H]1C#N`: the Ki is 0.006 to 0.05 µM.

Source of the values: patent publication US7553861B2, “Dipeptidyl peptidase-IV inhibitors” (Alantos Pharmaceuticals Holding, Inc., priority 2005, dated 2009).
